# Values quoted from earlier work as cited in US20220127568A1.
# Conditions: IV 50 mg; cited from earlier work
compound,measurement,value
Cc1cc(C)c(CNC(=O)c2cc(Br)c3c(c2C)O[C@](C)(C2CCC(N(C)C)CC2)O3)c(=O)[nH]1 (stereo partly shown),oral bio. (remark in Human Dosage column),poor oral
